Data taken from article PMC9905088.

By UniProt entry, the sequences of proteins in these tests, tags left out. Residues count along the entry.
UniProt P63045, 1-92 Q36C, chain 1 of 3: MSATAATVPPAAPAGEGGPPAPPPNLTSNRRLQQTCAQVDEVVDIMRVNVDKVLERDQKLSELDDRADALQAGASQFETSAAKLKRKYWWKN
UniProt P63041, 48-73: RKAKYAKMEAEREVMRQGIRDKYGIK
UniProt P63041, 1-83: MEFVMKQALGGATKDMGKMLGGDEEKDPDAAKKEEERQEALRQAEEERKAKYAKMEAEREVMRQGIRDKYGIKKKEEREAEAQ
UniProt P63041, 26-83: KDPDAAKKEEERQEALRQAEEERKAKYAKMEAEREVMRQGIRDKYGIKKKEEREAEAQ

Legend:
[1] = target: -6 layer cross-linked synaptic SNARE complex: VAMP2 (1-92, C2A, Q36C), syntaxin 1 (172-265, C173A, L209C), SNAP25 (1-206) (UniProt P63045); assay: single-molecule dual-trap optical tweezers; single SNARE complex tethered by a DNA handle between anti-digoxigenin and streptavidin beads, held at constant trap separation or pulled and relaxed; 8 μM CpxI or fragment supplied through a protein channel; 22 °C, 25 mM HEPES, 50 mM NaCl, 0.02% CA630, pH 7.4, oxygen scavenging system
[2] = target: -6 layer cross-linked synaptic SNARE complex: VAMP2 (1-92, C2A, Q36C), syntaxin 1 (172-265, C173A, L209C), SNAP25 (1-206) (UniProt P63045)
[3] = target: -6 layer cross-linked synaptic SNARE complex: VAMP2 (1-92, C2A, Q36C), syntaxin 1 (172-265, C173A, L209C), SNAP25 (1-206) (UniProt P63045); remark: listed apart in the source
[4] = target: -6 layer cross-linked synaptic SNARE complex: VAMP2 (1-92, C2A, Q36C), syntaxin 1 (172-265, C173A, L209C), SNAP25 (1-206) (UniProt P63045); remark: listed apart in the source

CpxI CH domain peptide (48-73 aa) (from UniProt P63041 48-73)
percent of SNARE complexes that changed state after the addition [1]: 81%
share of single SNARE complexes with slightly blocked C-terminal transition after 8 μM CH domain 48-73 aa (optical tweezers) [2]: 96%

CpxI fragment 1-83 aa (from UniProt P63041 1-83) (domain or fragment)
share of single SNARE complexes limited to N-terminal transition after 8 μM 1-83 aa (optical tweezers) [3]: 6%
signal rate of the C-terminal stabilized state of single SNARE complexes after 8 μM 1-83 aa (optical tweezers) [3]: 94%

CpxI fragment 26-83 aa (AH-CH domain) (from UniProt P63041 26-83) (domain or fragment)
signal rate of the C-terminal blocked state of single SNARE complexes after 8 μM 26-83 aa (optical tweezers) [4]: 31.5%
signal rate of the C-terminal stabilized state of single SNARE complexes after 8 μM 26-83 aa (optical tweezers) [4]: 66%
percent of SNARE complexes that changed state after the addition [1]: 57.5%
